# Ab-95 light chain CDR variants: yeast mating affinities

Binding partner: SARS-CoV-2 spike HR2 peptide, sequence PDVDLGDISGINAS.

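The parent was found by panning a naive human phage display library on the peptide. In library AAYL52, one, two or three CDR residues were substituted; doubles and triples were drawn at random. The assay is AlphaSeq: two haploid yeast populations carry antibody and antigen on their surface. Binding brings cells together so that they mate, and sequencing counts the barcode pairs among the diploids. Scores were corrected for input abundance and mapped to Kd with protein pairs of known affinity run in the same pool. Mating was done three times.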

Parent scFv Ab-95: VH joined to VL by three GGGGS repeats. Changes lie in the light chain CDRs alone.
VH: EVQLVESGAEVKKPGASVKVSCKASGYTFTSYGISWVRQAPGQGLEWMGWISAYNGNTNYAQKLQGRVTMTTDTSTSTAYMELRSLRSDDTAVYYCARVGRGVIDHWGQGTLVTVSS
VL: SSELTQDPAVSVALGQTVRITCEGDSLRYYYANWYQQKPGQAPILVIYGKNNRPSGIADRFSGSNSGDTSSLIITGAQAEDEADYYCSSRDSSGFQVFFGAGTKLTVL

Positions count from residue 1 of the parent VL; S26N puts N in place of S.
Every variant below is changed at Y30 of the VL (sequential numbering).
The read-out is the apparent dissociation constant on a log10 scale (nM): the lower, the stronger.
The mean shown is taken over the replicates in which the pair was detected.
"nd" means that the variant was in the library but no mating with the target was seen in that replicate; the authors take this as a sign of poor binding, and no number exists.

* S26N Y30Q F98I -> 1.06, 0.94, 0.69 (mean 0.90)
* D25G L27G Y30I -> 3.13, 2.54, 3.31 (mean 2.99)
* G24H S26T Y30T -> 2.03, 1.91, 1.55 (mean 1.83)
* G24T Y30H Q96C -> nd, nd, nd
* L27Y Y30W Q96Y -> 2.59, 2.85, 2.21 (mean 2.55)
* G24R Y30D D91S -> 2.28, 2.12, 1.93 (mean 2.11)
* L27H Y30N K50P -> 1.62, 1.59, 1.36 (mean 1.52)
* E23H Y30H N52W -> 1.95, 1.82, 1.19 (mean 1.65)
* Y30T F98A -> 1.31, 1.28, 0.97 (mean 1.19)
* Y30S K50Q S92K -> 0.89, 0.78, 0.24 (mean 0.64)
* Y30E N52S R53N -> 2.95, 2.62, 2.66 (mean 2.74)
* Y30T A32S G49K -> 3.85, nd, nd
* R28G Y30M N33L -> 4.61, 2.75, 4.54 (mean 3.97)
* Y30C R53Y -> nd, nd, 4.19
* S26R Y30L S88D -> 4.30, nd, nd
* Y30K Q96W -> 1.40, 1.19, 0.92 (mean 1.17)
* Y30E N33I G49I -> nd, nd, nd
* G24M Y30D N33R -> 2.37, 2.19, 2.28 (mean 2.28)
* D25M Y29K Y30S -> 1.54, 1.42, 0.85 (mean 1.27)
* D25H Y30K N51R -> nd, 4.10, 2.46 (mean 3.28)
* Y30I Y31D N33Q -> 3.27, 3.22, nd (mean 3.25)
* L27Y Y30Q K50D -> 1.33, 1.57, 0.92 (mean 1.27)
* Y30H S88V R90N -> 3.51, 2.96, 2.34 (mean 2.94)
* Y30C G49K -> 3.17, 4.03, 3.99 (mean 3.73)
* Y30H S89P Q96D -> 2.21, 1.89, 1.73 (mean 1.94)
* Y30F Y31L N52F -> 3.44, 4.03, 4.26 (mean 3.91)
* Y30F N52R F98Y -> 3.77, 3.90, 3.19 (mean 3.62)
* Y30R F98M -> 2.89, 2.75, 3.49 (mean 3.04)
* Y30P S55C R90A -> 5.23, nd, nd
* Y30K Y31P S93P -> 2.54, 2.29, 1.96 (mean 2.26)
* Y30S K50W D91T -> 2.33, 2.33, 1.77 (mean 2.14)
* Y30G Y31C Q96M -> 1.44, 1.39, 1.00 (mean 1.28)
* Y30H N51P V97S -> 4.11, 3.74, nd (mean 3.93)
* Y30Q S92L Q96Y -> 2.92, 1.68, nd (mean 2.30)
* Y30Q N33Y S55C -> nd, 3.13, nd
* Y30E A32T F95D -> 3.26, 3.05, 3.75 (mean 3.35)
* Y30S N52Q Q96F -> 1.33, 1.34, 1.11 (mean 1.26)

Picked from the list: the 6 lowest averages where every replicate gave a value.

changes,"replicates, log10 nM","log10 Kd (nM), mean"
Y30S K50Q S92K,"0.89, 0.78, 0.24",0.64
S26N Y30Q F98I,"1.06, 0.94, 0.69",0.90
Y30K Q96W,"1.40, 1.19, 0.92",1.17
Y30T F98A,"1.31, 1.28, 0.97",1.19
Y30S N52Q Q96F,"1.33, 1.34, 1.11",1.26
D25M Y29K Y30S,"1.54, 1.42, 0.85",1.27

Nonspecific signal, from three strains lacking the peptide, appeared in 28% of pairings of library AAYL52, centred on 3.91 (5% of these signals below 2.90); values are not corrected for it.
In this assay the parent's reference entry averaged 2.31; its copy inside this library read 2.25.

The measurements come from Engelhart et al. 2022 (doi:10.1038/s41597-022-01779-4) through the FLAb antibody collection.